# Apparent affinities of Ab-14 variants for a coronavirus HR2 peptide

From the AlphaSeq antibody data of Li et al. 2023 (doi:10.1038/s41467-023-39022-2), copy in the FLAb collection.

Binding partner: SARS-CoV-2 spike HR2 peptide, sequence PDVDLGDISGINAS.

Parent: Ab-14, a human scFv built as VH, the linker GGGGSGGGGSGGGGS, VL. Only the CDRs of the light chain vary.
VH: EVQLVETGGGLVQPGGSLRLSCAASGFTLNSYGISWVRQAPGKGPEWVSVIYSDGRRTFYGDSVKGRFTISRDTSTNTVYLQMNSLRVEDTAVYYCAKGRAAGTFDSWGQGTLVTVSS
VL: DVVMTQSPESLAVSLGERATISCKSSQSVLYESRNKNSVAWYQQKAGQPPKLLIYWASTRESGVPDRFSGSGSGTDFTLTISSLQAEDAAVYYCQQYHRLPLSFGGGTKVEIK

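The parent was found by panning a naive human phage display library on the peptide. The variants were designed computationally from a first round of random CDR variants and then made and measured. Several design methods are mixed in this list. The assay is AlphaSeq: two haploid yeast populations carry antibody and antigen on their surface. Pairs that bind mate more often; barcode pairs of the diploids are counted by sequencing. A regression on co-assayed BCL2-family reference pairs converts the normalised counts of each replicate to an apparent Kd. The assay was run in six technical replicates.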

Variants are written as CDR1, CDR2 and CDR3 of the light chain (limits as in the source). Parent: KSSQSVLYESRNKNSVA, WASTRES, QQYHRLPLS.
Affinities are written as log10 Kd with Kd in nM; a lower number is a better binder.
A mean of the replicates is given; it leaves out those without a signal.
An entry "nd" has no value in the source: the pair was not observed among the diploids in any replicate. This suggests poor binding but is not conclusive.
Empty control strains, which show no peptide, gave a signal in 4% of pairings with all light chain designs; the median was 2.64 and 95% of these signals were weaker than 1.59. No background was subtracted.
The authors averaged sequences with at least three values out of six and counted those with two or fewer as poor binders.
The parent sequence was in this pool as ten entries: three were never detected, three once, and four in most replicates, with averages from 0.34 to 2.37.
The range of this assay differs from that of the first round, and the authors advise against merging the two.

For AVQQSELGGSRNKNSVA | NASTRED | QQYHRLPLS, the assay gave -0.01 (6 of 6 replicates).
For IVSQLMLWGIHAKNSIA | EAQMRLN | QQYDRLPLF, the assay gave 1.11 (1 of 6 replicates).
For MLTMFANENAGKSKNIA | DTNNLNT | QQYQRLPFM, the assay gave 0.62 (6 of 6 replicates).
For KISYMGEWFSTNHSAIA | QASTREQ | QQYHRLPLS, the assay gave 0.63 (6 of 6 replicates).
For KLGSMVLLEYGTKNSIA | QQSTREE | QQYDRLPLS, the assay gave 0.49 (6 of 6 replicates).
For IVSQLMLWGMHVKNSIA | EAQTRLN | QQYDRLPLF, the assay gave nd (0 of 6 replicates).
For TLSQLMDMTSKNVNSVA | DLTTRGN | QQYHRLPLS, the assay gave 0.29 (6 of 6 replicates).
For KLSESVLMESRWKNSVA | DASTREE | QQYHRLPLS, the assay gave 0.29 (6 of 6 replicates).
For KSSGSVLFESRNKNSVA | NASTRES | QQYHRLPLS, the assay gave 0.28 (6 of 6 replicates).
For KLSQGWLYESRNANNVA | NASWREQ | QQYHRLPLS, the assay gave 0.05 (6 of 6 replicates).
For KVQQSVLYGDRNKNSVA | HGSTRSS | QDYHRLPLS, the assay gave 0.75 (6 of 6 replicates).
For KISQMYRYEQQNSSSIA | EVNTREQ | QSYHRLPLS, the assay gave 1.76 (1 of 6 replicates).
For KSSQSVLYESRNKNSVA | AASTRES | QQYHKGPLS, the assay gave nd (0 of 6 replicates).
For KSSQSVLGEERNKNSVA | DASTRES | QQYHRLPLS, the assay gave 0.49 (6 of 6 replicates).
For KFSQSVLYESRMYNSVA | NASTRES | QQYHRLPLS, the assay gave 0.49 (6 of 6 replicates).
For MFSQLMEYGSRYKNSVA | QASTREE | QQYHWLPLS, the assay gave 1.22 (6 of 6 replicates).
For KSLQSVLYESRNFNSVA | EASTRED | QQYHRLPLS, the assay gave 0.60 (6 of 6 replicates).
For AFSESAFYGQRDENAIA | GADVRAK | QQYWRLPLT, the assay gave 0.29 (6 of 6 replicates).
For KVDISATVGYMHKSGIA | EHDMRVG | QQYFRLPLA, the assay gave 0.69 (6 of 6 replicates).
For KLQQWHLYGSRMKNSVA | HASQRES | QCYHRLPLS, the assay gave 1.90 (5 of 6 replicates).
For QIYQAMHTLSQMKDNVA | DVNERGT | QQYHRLPLS, the assay gave 0.14 (6 of 6 replicates).
For TVSQVHEMLSRNKNSVA | DNNTRES | QQYDRLPLS, the assay gave 2.47 (2 of 6 replicates).
For MLYDSVLTLSRNKNSVA | DNSTRES | QQYDRLPLS, the assay gave nd (0 of 6 replicates).
For KISMMYRYEQQNSSSIA | EANTREN | QSYHRLPLS, the assay gave 2.07 (4 of 6 replicates).
For KLQWSNLYQSRNKNSVA | QASTRMM | QQYHRLPLS, the assay gave 0.99 (6 of 6 replicates).
For KSSQSVLYESMNKNSVA | EASTREC | QQYVRLPLS, the assay gave 0.41 (6 of 6 replicates).
For KISQSEYYEDRNKMSVA | DASQRLS | QQYHRLPLS, the assay gave 0.00 (6 of 6 replicates).
For KTSQSVLYESRNKNSVA | DASTRAY | QQYHRLPLS, the assay gave 0.71 (6 of 6 replicates).
For HISQMWFLESKNKNNVA | EESTRSD | QSYFRLPLS, the assay gave 0.23 (6 of 6 replicates).
For KLQISRGYEQRNKNSVA | EASTRCD | QQYHRLPLS, the assay gave -0.08 (6 of 6 replicates).

The last 4 entries again:

CDR-L1	CDR-L2	CDR-L3	log10 Kd (nM), mean	replicates with signal
KISQSEYYEDRNKMSVA	DASQRLS	QQYHRLPLS	0.00	6/6
KTSQSVLYESRNKNSVA	DASTRAY	QQYHRLPLS	0.71	6/6
HISQMWFLESKNKNNVA	EESTRSD	QSYFRLPLS	0.23	6/6
KLQISRGYEQRNKNSVA	EASTRCD	QQYHRLPLS	-0.08	6/6